## Binding of CDR-mutated scFvs to a peptide of the spike HR2 region

Antigen: PDVDLGDISGINAS, a 14-residue peptide of the SARS-CoV-2 spike HR2 region.

The variants keep the light chain, the linker and the frameworks of Ab-14 (scFv order VH, the linker GGGGSGGGGSGGGGS, VL).
VH: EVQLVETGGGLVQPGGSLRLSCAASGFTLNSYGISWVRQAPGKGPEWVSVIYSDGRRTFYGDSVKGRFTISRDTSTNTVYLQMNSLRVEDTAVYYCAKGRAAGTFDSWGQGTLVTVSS
VL: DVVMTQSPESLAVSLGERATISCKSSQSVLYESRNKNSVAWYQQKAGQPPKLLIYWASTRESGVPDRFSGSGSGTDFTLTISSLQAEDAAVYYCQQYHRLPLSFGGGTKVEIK

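The starting antibody came from a phage panning campaign against this peptide. Designed CDR sequences, proposed from the first random library and measured here. Their group label is 14H_GP_HC (GP: Gaussian process model; HC: hill climbing; a sequence that several methods proposed may carry one label only). AlphaSeq pools MATa yeast showing the antibodies with MATalpha yeast showing the peptide. Pairs that bind mate more often; barcode pairs of the diploids are counted by sequencing. Read counts were normalised to the haploid input and turned into Kd by a linear fit to BCL2-family pairs of known affinity, for each replicate. Each pool was mated in six replicate cultures.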

Variants are written as CDR1, CDR2 and CDR3 of the heavy chain (limits as in the source). Parent: GFTLNSYGIS, VIYSDGRRTFYGDSVK, GRAAGTFDS.
Affinities are written as log10 Kd with Kd in nM; a lower number is a better binder.
A pair that was not seen in that replicate is written "nd"; this usually means weak binding, but a binder can also be missed.
Values of this round are not directly comparable with the first-round values of the same sequences.

| # | CDR-H1 | CDR-H2 | CDR-H3 | log10 Kd (nM) by replicate | empty controls |
|---|---|---|---|---|---|
| 1 | GFSLNDYGIS | VIYSDGRRTFYGDSVK | GRAALTFDD | 1.20 / 1.37 / 0.98 / 0.75 / 0.31 / 0.87 | 0/18 |
| 2 | DFTLNEYGIS | VIYSDGRRTFYGDSVK | GRAAVTFDQ | nd / nd / nd / nd / nd / nd | 0/18 |
| 3 | GFSLNSYGIS | VIYSDGRRTAYSDSVK | GRAGGTFDS | 0.52 / 0.40 / 0.97 / 0.36 / 0.52 / 0.66 | 0/18 |
| 4 | GFSLNEYGIS | VIYSDGRRTFYQDSVK | GPAAGTFDR | 1.81 / 2.01 / 1.54 / 1.56 / 2.21 / 1.78 | 0/18 |
| 5 | GFWLNDYGIS | VIYSDGRRTFYGDAVK | GRAAGTFDI | 1.33 / 1.89 / 1.03 / 1.57 / 2.57 / 1.82 | 0/18 |
| 6 | GFTLEEYGIS | VIYSDGRRTFYGDSVK | GRAAGTFDQ | 0.27 / 1.04 / 0.39 / 0.66 / 0.67 / 0.12 | 0/18 |
| 7 | GFTLDSYGIS | VIYSDGRRTFYDDSVK | GRAAGTFDS | nd / 2.49 / 0.56 / 0.91 / 0.61 / 1.76 | 1/18 (2.62) |
| 8 | GFSLNEYGIS | VIYSDGRRTQYIDSVK | GRAAGTFDS | 1.07 / 0.25 / -0.27 / 1.40 / 0.81 / 0.44 | 0/18 |
| 9 | GFSLNEYGIS | VIYSDGRRTFYEDDVK | GRTAGTFDS | 0.34 / 0.07 / 0.32 / 0.90 / 0.20 / 0.32 | 0/18 |
| 10 | GFSLNSYGIS | VIYSDGRRTFYDDSVK | GMEAGTFDS | 0.24 / 0.18 / 0.33 / 0.14 / 0.09 / 0.64 | 1/18 (2.22) |
| 11 | GFTLNEYGIS | VIYSDGRRTFYDDSVK | GRYAGTFDS | nd / nd / 0.70 / 1.60 / 0.10 / 0.79 | 0/18 |
| 12 | GFSLNWYGIS | VIYSDGRRTAYIDSVK | GRAAGTFDS | 1.74 / 1.80 / 1.34 / 0.99 / nd / 2.34 | 0/18 |
| 13 | GFTLNSYGIS | VIYSDGRRTFYDDSVK | GTAAGTFDS | 0.59 / 0.42 / -0.09 / 0.31 / -0.15 / 0.41 | 0/18 |
| 14 | GFTLNEYGIS | VIYSDGRRTFYGDSVK | GRAGGTFRS | nd / nd / nd / nd / nd / nd | 0/18 |
| 15 | GFTLNDYGIS | VIYSDGRRTFYGDSVK | GRAAGTFTL | nd / nd / nd / nd / nd / nd | 0/18 |
| 16 | GFFLNDYGIS | VIYSDGRRTFYGDSVK | GQAAGTFDS | 0.14 / 0.49 / 0.29 / 0.01 / 0.55 / 0.80 | 0/18 |
| 17 | GFTLNSYGIS | VIYSDGRRTFYSDSVK | GRAAVTFDA | nd / nd / nd / 2.11 / nd / nd | 0/18 |
| 18 | GFTLNSYGIS | VIYADGRRTFYGDSVK | GRLAGTFDI | 0.75 / 1.12 / 1.22 / 1.19 / 1.80 / 1.73 | 1/18 (1.67) |
| 19 | GFTLNDYGIS | VIYSDGRRTFYGDSVK | GRAAGTFCV | nd / nd / nd / nd / nd / nd | 0/18 |
| 20 | GFPLNDYGIS | VIYSDGRRTWYGDSVK | GRAAGTFDS | nd / nd / nd / nd / nd / nd | 1/18 (2.16) |
| 21 | GFTLESYGIS | VIYSDGRRTFYDDSVK | GQNAGTFDS | 0.55 / 0.52 / 0.29 / 1.08 / 0.29 / 0.35 | 0/18 |
| 22 | GFTLNEYGIS | VIYSDGRRTAYGDSVK | GRAAGTFGS | nd / 2.80 / 1.14 / nd / nd / nd | 1/18 (1.30) |
| 23 | EFTLNSYGIS | VIYSDGRRTFYSDSVK | GEAGGTFDF | nd / nd / nd / nd / nd / nd | 0/18 |
| 24 | GFKLNSYGIS | VIYSDGRRTFYSDSVK | GQTAGTFDS | 0.74 / 0.40 / 0.60 / 0.51 / 0.83 / 0.79 | 2/18 (2.50) |
| 25 | GFTLNSYGIS | VIYSDGVRTFYSDSVK | GKAAGTFDV | 1.07 / -0.41 / nd / nd / -0.55 / nd | 0/18 |
| 26 | GFDLNSYGIS | VIYSDGRRTFYDDSVK | GMLAGTFDS | -0.31 / -0.25 / -0.25 / -0.87 / -0.73 / -0.06 | 0/18 |
| 27 | GFWLNQYGIS | VIYSDGRRTAYQDSVK | GRAAGTFDS | 1.24 / 0.99 / 1.09 / 1.00 / 1.17 / 0.66 | 0/18 |
| 28 | GNTLNEYGIS | VIYSDGRRTFYSDSVK | GRCAGTFDS | 1.13 / 1.36 / 2.19 / 1.56 / 1.14 / 0.47 | 0/18 |
| 29 | GFTLNEYGIS | VIYSDGRRTFYGDSVK | GRMAGTFDK | 1.46 / 1.40 / 0.75 / 0.88 / 1.00 / 0.95 | 0/18 |
| 30 | WFDLNSYGIS | VIYSDGRRTFYGDSVK | GRQAGTFDS | nd / nd / nd / nd / nd / nd | 0/18 |
| 31 | SFTLNSYGIS | VIYSDGRRTFYIDSVK | GRIAGTFDS | nd / nd / nd / nd / nd / nd | 0/18 |
| 32 | GFTLNEYGIS | VIYSDGRRTFYTDSVK | GRAAGQFDS | nd / nd / nd / nd / nd / nd | 0/18 |

The 3 strongest on average among those seen in every replicate, once more:

| CDR-H1 | CDR-H2 | CDR-H3 | log10 Kd (nM) by replicate | empty controls |
|---|---|---|---|---|
| GFDLNSYGIS | VIYSDGRRTFYDDSVK | GMLAGTFDS | -0.31 / -0.25 / -0.25 / -0.87 / -0.73 / -0.06 | 0/18 |
| GFTLNSYGIS | VIYSDGRRTFYDDSVK | GTAAGTFDS | 0.59 / 0.42 / -0.09 / 0.31 / -0.15 / 0.41 | 0/18 |
| GFSLNSYGIS | VIYSDGRRTFYDDSVK | GMEAGTFDS | 0.24 / 0.18 / 0.33 / 0.14 / 0.09 / 0.64 | 1/18 (2.22) |

The authors averaged sequences with at least three values out of six and counted those with two or fewer as poor binders.
Of ten entries with the parent sequence, four were seen in most replicates (averages 0.34 to 2.37), three in one and three in none, so single entries are noisy.
Three control strains display no target. For all heavy chain designs, 1% of the pairings with them gave a signal, with a median of 2.08 and one signal in twenty below 0.84, so weak values seen in few replicates may be background. For each scFv, signals with the empty controls are counted beside the result, with their mean in brackets.

Source: Li et al. 2023 (doi:10.1038/s41467-023-39022-2), MIT Lincoln Laboratory and A-Alpha Bio; data file from the FLAb repository.